Values quoted from earlier work as cited in patent US11319289B2, “5-hydroxy pyridine-based compound for use as P2X1 and P2X3 receptor antagonist and pharmaceutical composition comprising same” (GWANGJU INSTITUTE OF SCIENCE AND TECHNOLOGY, priority 2017, dated 2022).
pIC50: −log10 of the molar value.

Chains of the proteins cited; added tags and fusions are not shown.
UniProt P56373, whole entry: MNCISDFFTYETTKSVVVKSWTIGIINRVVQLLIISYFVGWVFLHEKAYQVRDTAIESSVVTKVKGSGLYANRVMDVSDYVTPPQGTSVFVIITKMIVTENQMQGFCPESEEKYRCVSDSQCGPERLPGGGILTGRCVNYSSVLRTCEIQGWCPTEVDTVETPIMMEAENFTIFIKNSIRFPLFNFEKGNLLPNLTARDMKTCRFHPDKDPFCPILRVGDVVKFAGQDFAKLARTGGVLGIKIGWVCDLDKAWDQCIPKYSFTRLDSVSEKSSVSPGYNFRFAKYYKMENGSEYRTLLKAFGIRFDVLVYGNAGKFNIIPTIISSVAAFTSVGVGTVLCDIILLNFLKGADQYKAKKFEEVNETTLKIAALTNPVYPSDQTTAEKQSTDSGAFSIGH

Biological target: hP2X3 receptor (Homo sapiens, UniProt P56373)
Settings: read-out: IC50 for hP2X3 receptor, previously reported; reported by the present inventors in previous studies; cited from earlier work

Cc1nc(Cc2cccc(Oc3ccccc3)c2)c(C=CC(=O)O)c(C=O)c1O
pIC50: 7.22
